# pIC50, pKd: −log10 of the molar value.
# Columns and labels:
# JAK3/JAK1 = JAK3/JAK1 (Homo sapiens, UniProt P23458+P52333); type: cell-based, T-cell
# [1] = target: T1, Tyrosine-protein kinase JAK3 (Homo sapiens, UniProt P52333)
# T1 sequence (P52333 whole entry): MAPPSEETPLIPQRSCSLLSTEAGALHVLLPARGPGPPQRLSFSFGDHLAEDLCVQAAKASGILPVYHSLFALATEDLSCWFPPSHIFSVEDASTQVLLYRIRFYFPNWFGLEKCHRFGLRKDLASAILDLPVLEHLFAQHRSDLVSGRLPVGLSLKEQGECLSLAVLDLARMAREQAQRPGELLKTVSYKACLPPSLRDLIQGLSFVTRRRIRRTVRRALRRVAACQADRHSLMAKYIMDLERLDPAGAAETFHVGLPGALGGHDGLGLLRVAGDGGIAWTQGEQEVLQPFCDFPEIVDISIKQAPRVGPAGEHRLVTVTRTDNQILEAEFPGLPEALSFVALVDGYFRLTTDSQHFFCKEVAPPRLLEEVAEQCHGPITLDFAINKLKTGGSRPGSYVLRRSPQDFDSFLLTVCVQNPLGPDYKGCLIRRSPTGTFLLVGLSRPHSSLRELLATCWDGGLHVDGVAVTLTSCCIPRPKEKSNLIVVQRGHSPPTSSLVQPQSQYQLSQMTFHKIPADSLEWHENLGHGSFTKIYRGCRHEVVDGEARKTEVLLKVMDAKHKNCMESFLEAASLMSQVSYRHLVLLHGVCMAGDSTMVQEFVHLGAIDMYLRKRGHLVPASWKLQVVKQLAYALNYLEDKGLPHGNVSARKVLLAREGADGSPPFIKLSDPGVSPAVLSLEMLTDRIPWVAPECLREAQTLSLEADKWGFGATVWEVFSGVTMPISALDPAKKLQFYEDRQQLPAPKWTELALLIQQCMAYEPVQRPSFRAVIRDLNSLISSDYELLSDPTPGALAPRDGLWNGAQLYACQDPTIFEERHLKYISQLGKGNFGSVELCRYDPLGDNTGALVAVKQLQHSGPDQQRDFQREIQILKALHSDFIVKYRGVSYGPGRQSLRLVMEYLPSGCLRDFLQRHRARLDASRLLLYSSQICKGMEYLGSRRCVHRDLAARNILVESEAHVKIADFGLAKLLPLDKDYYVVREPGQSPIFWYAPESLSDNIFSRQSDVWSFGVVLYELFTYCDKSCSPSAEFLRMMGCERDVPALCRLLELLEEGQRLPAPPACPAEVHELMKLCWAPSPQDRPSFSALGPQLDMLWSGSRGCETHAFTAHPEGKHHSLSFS
# [2] = target: T1, Tyrosine-protein kinase JAK3; remark: listed apart in the source
SMILES,pIC50 (JAK3/JAK1),pIC50 [1],pKd [2]
C[C@@H](NC(=O)c1c[nH]c2ncc(-c3cn(C)c4cc(Cl)ccc34)nc12)C(=O)N1CC(C#N)C1,,9.10,
C[C@@H](NC(=O)c1c[nH]c2ncc(-c3nn(C)c4cc(Cl)ccc34)nc12)C(=O)N1CC(C#N)C1,6.62,8.96,8.85
C[C@@H](NC(=O)c1c[nH]c2ncc(-c3nn(C)c4cc(F)ccc34)nc12)C(=O)N1CC(C#N)C1,6.82,9.22,
C[C@@H](NC(=O)c1c[nH]c2ncc(-c3nn(C)c4cc(C#N)ccc34)nc12)C(=O)N1CC(C#N)C1,,8.64,
C[C@@H](NC(=O)c1c[nH]c2ncc(-c3ncn4cc(F)cc(F)c34)nc12)C(=O)N1CC(C#N)C1,,9.00,

# The next compounds have a higher pIC50 [1] than those just listed; values first:
pIC50 (JAK3/JAK1),pIC50 [1],pKd [2],SMILES
7.00,9.40,,COc1cc(-c2cnc3[nH]cc(C(=O)N[C@H](C)C(=O)N4CC(C#N)C4)c3n2)cc(OC)c1OC
,9.52,,Cn1nc(-c2cnc3[nH]cc(C(=O)N[C@@H](C(=O)N4CC(C#N)C4)C4CC4)c3n2)c2ccc(Cl)cc21

# From ChEMBL document CHEMBL2375236, “Strategic use of conformational bias and structure based design to identify potent JAK3 inhibitors with improved selectivity against the JAK family and the kinome” (Bioorg Med Chem Lett, 2013)
